1 molecule from US12012467B2, “Small molecule DCN1 inhibitors and therapeutic methods using the same” (THE REGENTS OF THE UNIVERSITY OF MICHIGAN, priority 2017, dated 2024) can be followed below.

Chains of the proteins cited; added tags and fusions are not shown. Residues count along the entry.
UniProt Q96GG9, 58-259: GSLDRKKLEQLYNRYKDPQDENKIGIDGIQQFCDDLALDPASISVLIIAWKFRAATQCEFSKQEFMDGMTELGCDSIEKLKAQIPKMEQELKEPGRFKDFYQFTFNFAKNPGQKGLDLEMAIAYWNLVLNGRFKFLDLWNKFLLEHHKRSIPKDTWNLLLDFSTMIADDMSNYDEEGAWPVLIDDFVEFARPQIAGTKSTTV

For the assay, the target named is DCN1 (Homo sapiens (Human), UniProt Q96GG9). The assay is described as follows: Competitive FP binding assay. Conditions: read-out: Binding affinity to DCN1 (IC50 (nM)). The protocol:
Competitive FP Binding Assay
The Fluorescence Polarization (FP) competitive binding assays were performed to accurately determine the binding affinities of our DCN1 inhibitors. […] Serial dilutions of proteins were mixed with 46 to a final volume of 200 μl in the assay buffer (100 mM phosphate buffer, pH=6.5, with 0.02% Tween-20 and 2% DMSO). Final probe concentration was 5 nM for both assays. Plates were incubated at room temperature for 30 minutes with gentle shaking to assure equilibrium.
Pure proteins were derived from the same expression and purification protocols. Plasmids were transformed into Rosetta2 cells, the cells were grown in Terrific Broth at 37° C. to an O.D.600>1.0 and induced with 0.4 mM Isopropyl (3-D-1-thiogalactopyranoside overnight at 20° C. The pelleted cells were resuspended in lysis buffer containing 25 mM Tris-HCl, pH 7.5, 200 mM NaCl and protease inhibitors, sonicated and centrifuged at 34,000×g for 45 minutes to remove debris. Cleared lysate was incubated with Ni-NTA resin (Qiagen) prewashed with lysis buffer, for 1 hr at 4° C. The matrix was loaded into a column then washed with 25 mM Tris-HCl, pH 7.5, 200 mM NaCl and 10 mM imidazole. Protein was eluted with 25 mM Tris-HCl, pH 7.5, 200 mM NaCl and 300 mM imidazole, concentrated and applied to a Superdex 75 (GE Healthcare) column pre-equilibrated with 25 mM Tris pH 7.5, 200 mM NaCl and 1 mM DTT. […]

One may read the IC50 as the concentration that gives 50% inhibition.

On to `CCC(=O)N[C@@H](Cc1nc2ccc(C(C)C)cc2s1)C(=O)N[C@H](CNC(=O)C1CCN(CCOCCOCCOCCNC(=O)CCCC[C@@H]2SC[C@@H]3NC(=O)N[C@@H]32)CC1)C1CCCCC1` [Example 126, N—((S)-2-cyclohexyl-2-((S)-3-(6-isopropylbenzo[d]thiazol-2-yl)-2-propionamidopropanamido)ethyl)-1-(13-oxo-17-((3aS,4S,6aR)-2-oxohexahydro-1H-thieno [3,4-d]imidazol-4-yl)-3,6,9-trioxa-12-azaheptadecyl)piperidine-4-carboxamide], for which the IC50 is 29.6 nM.
